Experimental data published in patent US12582645B2, “Chemokine CXCR4 receptor modulators and uses related thereto” (Emory University, priority 2017, dated 2026).
pIC50: −log10 of the molar value.

The chains behind the UniProt entries cited, without tags or fusion partners.
UniProt P61073, whole entry: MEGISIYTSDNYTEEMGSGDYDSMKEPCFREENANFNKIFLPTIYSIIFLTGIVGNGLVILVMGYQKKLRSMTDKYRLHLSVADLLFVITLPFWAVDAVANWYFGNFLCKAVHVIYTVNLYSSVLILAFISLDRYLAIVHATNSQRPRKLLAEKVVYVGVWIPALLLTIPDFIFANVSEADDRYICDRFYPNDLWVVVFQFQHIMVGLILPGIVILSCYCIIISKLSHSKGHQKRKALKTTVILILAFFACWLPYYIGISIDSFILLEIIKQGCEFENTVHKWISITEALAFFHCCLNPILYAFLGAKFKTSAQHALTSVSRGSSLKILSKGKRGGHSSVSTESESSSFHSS

Molecular target: CXCR4 (Homo sapiens, UniProt P61073)
Assay: CXCR4-CEM calcium flux assay, antagonist mode (inhibition of SDF-1α-induced calcium flux)
Format: cell-based
Conditions: read-out: CXCR4 Ca^2+ Flux IC50, CCRF-CEM cells expressing endogenous CXCR4, stimulated with 4 nM SDF-1α

pIC50: 5.74
SMILES: NC1CCC(N(C[C@H]2Cc3ccccc3CN2)[C@H]2CCCc3cccnc32)CC1 (single isomer, unassigned)
